Legend:
[1] = biological target: T1, Cholecystokinin receptor type A (Homo sapiens, UniProt P32238)
[2] = biological target: T1, Cholecystokinin receptor type A; remark: listed apart in the source

Protein sequences, listed by entry. Tags and fused reporters are not part of them.
UniProt P32238, whole entry L356H: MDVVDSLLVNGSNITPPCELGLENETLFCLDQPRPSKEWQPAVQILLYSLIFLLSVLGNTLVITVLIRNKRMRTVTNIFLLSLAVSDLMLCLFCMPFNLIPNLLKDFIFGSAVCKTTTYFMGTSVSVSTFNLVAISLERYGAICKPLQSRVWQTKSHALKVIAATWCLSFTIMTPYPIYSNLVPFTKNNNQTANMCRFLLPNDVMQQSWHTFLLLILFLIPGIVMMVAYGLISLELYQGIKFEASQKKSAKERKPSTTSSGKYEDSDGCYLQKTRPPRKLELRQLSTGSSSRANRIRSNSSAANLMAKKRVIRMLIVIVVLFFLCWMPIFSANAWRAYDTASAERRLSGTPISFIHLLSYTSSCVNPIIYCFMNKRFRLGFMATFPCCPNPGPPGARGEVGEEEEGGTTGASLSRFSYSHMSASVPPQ

SMILES: O=C(CN1C(=O)C(NC(=O)Nc2ccccc2)C(=O)N(c2ccccc2)c2ccccc21)Nc1ccccc1 (configuration not stated)
- IC50 [1]: 12 nM
- IC50 [2]: 6.3 nM

Reference: BindingDB's records for doi:10.1016/j.bmcl.2015.03.051 (Mayo Clinic, 2015)
